In US20260041680A1, “METHODS OF TREATING CANCER WITH LONG-ACTING TOPOISOMERASE I INHIBITOR” (priority 2022, published 2026):

Tests used:
[1] = system: NCI-N87 human gastric cancer xenograft; experiment: NCI-N87 human gastric cancer xenograft, antitumor activity and tolerability; conditions: PLX038 200 mg/kg, irinotecan 60 mg/kg, IV once a week for 2 weeks
[2] = system: HCT116 human colon cancer xenograft; experiment: HCT116 human colon cancer xenograft, antitumor activity and tolerability; conditions: PLX038 200 mg/kg, irinotecan 60 mg/kg, IV once a week for 2 weeks
[3] = system: Panc-1 human pancreatic cancer xenograft; experiment: Panc-1 human pancreatic cancer xenograft, antitumor activity and tolerability; conditions: PLX038 IV 200 mg/kg, gemcitabine IP 50 mg/kg, once a week for 2 weeks
[4] = system: H460 human lung cancer xenograft; experiment: H460 human lung cancer xenograft, antitumor activity and tolerability; conditions: PLX038 IV 200 mg/kg, cisplatin IP 5 mg/kg, once a week for 2 weeks
[5] = system: H446 human small cell lung cancer xenograft; experiment: H446 human small cell lung cancer xenograft, antitumor activity and tolerability; conditions: PLX038 IV 200 mg/kg, cisplatin IP 5 mg/kg, once a week for 2 weeks
[6] = system: MKN45 human gastric cancer xenograft; experiment: MKN45 human gastric cancer xenograft, antitumor activity and tolerability; conditions: PLX038 200 mg/kg, irinotecan 60 mg/kg, IV once a week for 2 weeks

Q: What does the source list for “O-[7-(tetra-polyethylene glycol ether)-carboxamido-1-cyano-2-heptyl]-N-(10′-methoxy-7′-ethyl-camptothecin)-N-[4′-(diethylcarbamoyl)phenyl)] carbamate”?
A: tolerability [1]: well-tolerated; tolerability [2]: well tolerated; tolerability [3]: well-tolerated; tolerability [4]: well-tolerated; tolerability [5]: well-tolerated; tolerability [6]: well-tolerated
